Shown are actives, neighbours in structure and some others; about 16% of the full set was active somewhere.
TDP1 block – blocks human tyrosyl-DNA phosphodiesterase 1 | AID 485290 | recombinant TDP1, AlphaScreen DNA substrate cleavage | Potency, µM (series often up to 130 µM), inactives show at the highest dose activity change, negative = inhibition, most hits filed as inhibitors | 350,000 compounds, 0.28% hits | Q9NUW8; also: potency is read from the fitted curve at half-maximal effect; % is scaled to controls: 0 for no effect and ±100 for the full control effect; nearly all actives have a fitted effect of over 40% in size
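Here, a 5' biotin and 3' phosphotyrosine-FITC DNA oligonucleotide reports Tdp1 activity: intact substrate bridges AlphaScreen beads, while cleavage leaves a 3' phosphate and drops signal. All incubations at room temperature.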
DT40 TDP1 no CPT – qHTS for Inhibitors of human tyrosyl-DNA phosphodiesterase 1 (TDP1): qHTS in cells in absence of CPT | DT40 Tdp1-/- hTDP1 cells, no CPT, ATP luminescence, 48 h | 420,000 compounds, 15% hits | Potency, µM (titrated, usually from 46.2 µM), for inactives: top-dose activity change, negative = growth inhibition, usual class: inhibitors | AID 686978, 2013; also: potency is read from the fitted curve at half-maximal effect; % is scaled to controls: 0 for no effect and ±100 for the full control effect; nearly all actives have a fitted effect of over 55% in size
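A cellular qHTS used chicken DT40 cells lacking endogenous Tdp1 but carrying stably transfected human TDP1. Compounds were applied without camptothecin, and cell growth kinetics were judged by ATP-dependent luminescence after ≥48 hr.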
miR-21 reporter – raises the signal of a miR-21 reporter; AID 2288; 340,000 tested, under 10 active; Potency, µM (doses to about 38.3 µM), inactives show at the top dose reporter change, positive = more light; HeLa miR-21 FLuc reporter, luciferase, 48 h; active = well fitted rising curve with a large enough effect; inconclusive = small, poorly fitted or top-dose-only effect; inactive = no such curve, though single readings can be large or run the other way;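 note: % of control where 0% means no effect; miR-21 action dims this reporter so a rising signal means less miR-21 action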
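HeLa cells endogenously expressing miR-21, stably carrying CMV-driven firefly luciferase with a downstream miR-21 binding site, 2000 cells/well. Titrations up to approximately 40 uM, 48 hours; luciferase luminescence read.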
uPA surface inh – blocks generation of uPA at the cell surface | cell surface uPA generation assay, qHTS | Potency, µM (top dose mostly 38.3 µM), inactives show at the top dose activity change, negative = inhibition, hits mostly inhibitors | 330,000 compounds, 0.31% hits | AID 540303; active = well fitted inhibition curve with a large enough effect; inconclusive = small, poorly fitted or top-dose-only effect; inactive = no such curve, though single readings can be large or run the other way; tested in mouse RAW 264.7 cells; also: potency is read from the fitted curve at half-maximal effect; % is scaled to controls: 0 for no effect and ±100 for the full control effect; nearly all actives have a fitted effect of over 55% in size
DT40 TDP1 CPT – growth inhibition of DT40 Tdp1-/-;hTDP1 cells with camptothecin (screen for TDP1 inhibitors) | chicken DT40 Tdp1-/-;hTDP1 cells + 20 nM CPT, ATP luminescence, 48 h | Potency, µM (doses to about 46.2 µM), for the others: at the top dose activity change, negative = growth inhibition, most hits filed as inhibitors | 420,000 compounds, 12% hits; also: potency is read from the fitted curve at half-maximal effect; % is scaled to controls: 0 for no effect and ±100 for the full control effect; nearly all actives have a fitted effect of over 55% in size
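Chicken DT40 Tdp1-/- cells complemented with human TDP1, 400 cells/well, exposed to compounds plus 20 nM camptothecin for at least 48 h at 37 C; viability read as ATP content by CellTiter-Glo luminescence.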
An asterisk follows results filed as active; ? = inconclusive; · = not tested or not shown; [ ] = another dose, or the depositor's remark. Unless noted, calls follow the shape of the dose curve; as a rule, active = well fitted curve in the direction sought with a large enough effect; inconclusive = small, poorly fitted or top-dose-only effect, or another doubt; inactive = no such curve, though single readings can be large; an effect the other way counts as inactive or inconclusive.

Key to letters: A = TDP1 block; B = DT40 TDP1 no CPT; C = miR-21 reporter; D = uPA surface inh; E = DT40 TDP1 CPT
1) CCCc1cc(-c2n[nH]c(=S)n2CC(C)C)cs1
  A: -2.6%	B: 20.6µM*	C: -9.3%	D: 5.1%	E: ?
2) CCCCn1c(-c2csc(C(C)C)c2)n[nH]c1=S
  A: 5.3%	B: -11.5%	C: -5.6%	D: 10.1%	E: -15.2%
3) COc1cc(C#N)ccc1OCC(=O)N1CCc2ccccc2C1
  A: 1.7%	B: -17.0%	C: -15.6%	D: -0.9%	E: 11.6%
4) CCc1ccc(C2=C(C)C(N3CCC(C(=O)NCc4ccc(C)o4)CC3)=NS2(=O)=O)cc1
  A: 4.5%	B: ?	C: -1.9%	D: ·	E: ?
5) O=C1c2ccccc2C2N1CCCN2C(=O)c1sc2ccccc2c1Cl (centres undefined)
  A: ·	B: 16.4µM*	C: ·	D: ·	E: 18.4µM*
6) Cc1cc(NS(=O)(=O)c2ccc(NC(=O)c3cc4ccccc4o3)cc2)nc(C)n1
  A: 2.0%	B: -24.9%	C: -8.8%	D: -2.6%	E: -15.9%
7) Cc1cc(NS(=O)(=O)c2ccc(NC(=O)c3cc4c(=O)n5ccccc5nc4s3)cc2)nc(C)n1
  A: 39.8µM*	B: ?	C: -13.1%	D: 19.9%	E: -7.2%
8) CCN(CC)S(=O)(=O)c1ccc(N2CCN(C)CC2)c(NC(=O)COc2ccc(F)cc2Cl)c1
  A: ·	B: 16.4µM*	C: ·	D: -26.4%	E: ?
9) CN1CCN(c2ccc(S(=O)(=O)N3CCOCC3)cc2NC(=O)COc2ccc(F)cc2Cl)CC1
  A: 5.7%	B: ?	C: -14.1%	D: -11.1%	E: 25.9µM*
10) COc1cccc(CNC(=O)Cc2ccc(NC(=O)C3=C(C)OCCS3)cc2)c1
  A: 0.0%	B: -22.7%	C: -19.6%	D: ?	E: ?
11) CC(=O)Nc1ccc(Nc2nc(C)nc3c2nnn3Cc2ccccc2Cl)cc1
  A: ·	B: 16.4µM*	C: 3.4%	D: -6.0%	E: -15.8%
12) Cc1nc(NC2CCCCC2)c2nnn(Cc3ccccc3Cl)c2n1
  A: ·	B: ?	C: -3.0%	D: 31.8%	E: ?
13) Cc1nc(N2CCCC2)c2nnn(Cc3ccccc3Cl)c2n1
  A: 3.8%	B: 25.9µM*	C: -1.4%	D: ·	E: 13µM*
14) CC(=O)Nc1ccc(S(=O)(=O)N2CCC(c3nc4c(nnn4Cc4ccccc4Cl)c(=O)[nH]3)CC2)cc1
  A: 4.4%	B: 16.2%	C: 0.9%	D: 2.4%	E: 25.7%
15) CC(C)(C)OC(=O)N1CCC(c2nnc(SCc3cccc(Cl)c3)o2)CC1
  A: 4.5%	B: ·	C: ?	D: ·	E: ·
16) CC1C(=O)N(Cc2ccc(F)cc2)c2ccccc2N1C(=O)c1c(F)cccc1F (centres undefined)
  A: ·	B: ?	C: 14.9%	D: -2.2%	E: 16.4µM*
17) COC(=O)c1ccc(CN2C(=O)C(C)N(C(=O)c3c(F)cccc3F)c3ccccc32)cc1 (centres undefined)
  A: ·	B: 8.2µM*	C: 5.2%	D: -18.1%	E: 14.6µM*
18) CC1C(=O)N(Cc2ccc([N+](=O)[O-])cc2)c2ccccc2N1C(=O)C1CC1 (centres undefined)
  A: 8.8%	B: ?	C: -0.5%	D: -1.1%	E: ?
19) COC(=O)c1ccc(CN2C(=O)c3ccccc3C2=O)cc1
  A: 1.9%	B: 0.4%	C: -2.1%	D: 0.8%	E: 5.0%
20) CSc1cccc(NC(=O)CSc2nnc(C)s2)c1
  A: -5.2%	B: -3.0%	C: -11.1%	D: -1.1%	E: -6.9%
21) COc1ccc2c(c1OC)C(=O)N1C2SC[C@H]1C(=O)NC1CC1 (some centres undefined)
  A: ·	B: -12.5%	C: -5.0%	D: 3.5%	E: 1.9%
22) O=S(=O)(Nc1ccc(F)c(C(F)(F)F)c1)c1ccc(N2CCCCS2(=O)=O)cc1
  A: 3.8%	B: 11.6µM*	C: ?	D: ·	E: 20.6µM*
23) O=S(=O)(Nc1ccc(OC(F)(F)F)cc1)c1ccc(N2CCCCS2(=O)=O)cc1
  A: 6.2%	B: 20.6µM*	C: 13.4%	D: ·	E: 20.6µM*
24) COc1ccc(-c2ccc(NS(=O)(=O)c3ccc(F)c(C(F)(F)F)c3)cc2)nn1
  A: -0.6%	B: ?	C: 0.1%	D: ·	E: ?
25) COc1ccc(NS(=O)(=O)c2ccc(N3CCCCS3(=O)=O)cc2)cc1Cl
  A: 3.8%	B: 4.61µM*	C: 18.9%	D: ·	E: 8.2µM*
26) Cc1nc(-c2ccc(S(=O)(=O)Nc3ccc(OC(F)(F)F)cc3)cc2)co1
  A: 7.7%	B: ?	C: 15.4%	D: ·	E: ?
27) COc1cccc(NC(=O)C2CCN(S(=O)(=O)c3c(C)noc3C)CC2)c1
  A: -4.3%[12.3 µM]	B: -14.4%	C: 1.4%	D: ·	E: 12.9%
28) COc1ccccc1NC(=O)CN(Cc1ccco1)C(=O)c1ccc(-n2nc(C)cc2C)cc1
  A: 7.1%	B: 16.4µM*	C: 4.4%	D: ·	E: ?
29) Cc1cc(C)n(-c2ccc(C(=O)Nc3ccc(S(=O)(=O)NCc4ccco4)cc3)cc2)n1
  A: 9.8%	B: 18.4µM*	C: ?	D: -10.2%	E: 18.4µM*
30) Cc1cc(C)cc(NC(=O)c2cc(S(=O)(=O)NCc3ccco3)ccc2F)c1
  A: 5.2%	B: 11.2µM*	C: 12.9%	D: ·	E: ?
31) Cc1ccc(C(=O)Nc2ccc(S(=O)(=O)NCc3ccco3)cc2)cc1
  A: ·	B: ?	C: -28.1%	D: ·	E: ?
32) O=S(=O)(NCc1ccccc1)c1ccc(NC(=S)NCc2ccco2)cc1
  A: ·	B: 11.6µM*	C: 16.2%	D: -7.4%	E: ?
33) COc1ccccc1NC(=O)CN(Cc1ccco1)C(=O)c1cncc(Br)c1
  A: 2.6%	B: -31.4%	C: 1.1%	D: -5.4%	E: -20.2%
34) CC(=O)Nc1ccc(NCN2C(=O)[C@@H]3[C@H]4CC[C@H](C4)[C@@H]3C2=O)cc1
  A: 2.7%	B: -19.8%	C: -0.6%	D: 3.1%	E: -28.6%
35) COc1ccc(NC(=O)N2CCC3(CC2)CCN(C(=O)c2ccncc2)CC3)cc1
  A: ·	B: -13.5%	C: ·	D: ·	E: 4.9%
36) C/C(=N\Nc1nc(Cl)c(Cl)cc1Cl)c1ccc(S(=O)(=O)NCc2ccco2)cc1
  A: 5.5%	B: 20.6µM*	C: ?	D: -7.8%	E: ?
37) O=C(Nc1ccc(S(=O)(=O)NCc2ccco2)cc1)c1ccc(F)cc1
  A: 56.2µM*	B: ?	C: 10.7%	D: -12.1%	E: ?
38) C/C(=N\Nc1ccccn1)c1ccc(S(=O)(=O)NCc2ccco2)cc1
  A: 7.1%	B: ?	C: -15.2%	D: -2.4%	E: -19.4%
39) CC(=O)Nc1c2c(nn1-c1cccc(Cl)c1)CS(=O)C2 (centres undefined)
  A: 9.2%	B: -13.7%	C: 3.3%	D: -15.8%	E: 7.3%
40) Fc1ccc(-c2c[nH]c(=S)n2Cc2ccccc2)cc1
  A: 8.8%	B: ?	C: 19.8%	D: -7.7%	E: 20.6µM*
41) Cc1ccc(-c2n[nH]c3c2C(c2cccc(O)c2)N(c2ccc(C(=O)O)cc2)C3=O)cc1 (centres undefined)
  A: 2.3%	B: 16.4%	C: -0.6%	D: 5.2%	E: 2.7%
42) O=C1c2[nH]nc(-c3ccccc3)c2C(c2ccccc2)N1c1cccc(C(F)(F)F)c1 (centres undefined)
  A: 1.3%[12.3 µM]	B: 16.4µM*	C: ?	D: ·	E: 11.6µM*
43) O=C1c2[nH]nc(-c3ccc(Br)cc3)c2C(c2cccc(O)c2)N1c1ccc(Cl)cc1 (centres undefined)
  A: 4.7%	B: 23.1µM*	C: ?	D: ·	E: ?
44) COc1ccc(N2CCN(C(=O)CSc3ncnc4scc(-c5ccc(C)cc5)c34)CC2)cc1
  A: ·	B: 16.4µM*	C: ·	D: -6.4%	E: ?
45) COc1ccc(N2CCN(C(=O)CSc3nc(C)cs3)CC2)cc1
  A: 0.3%	B: -10.3%	C: ·	D: -2.8%	E: -22.1%

An excerpt from above, reduced to TDP1 block, uPA surface inh and DT40 TDP1 CPT.
nr | smiles | TDP1 block | uPA surface inh | DT40 TDP1 CPT
28 | COc1ccccc1NC(=O)CN(Cc1ccco1)C(=O)c1ccc(-n2nc(C)cc2C)cc1 | 7.1% | · | ?
42 | O=C1c2[nH]nc(-c3ccccc3)c2C(c2ccccc2)N1c1cccc(C(F)(F)F)c1 (centres undefined) | 1.3%[12.3 µM] | · | 11.6µM*
41 | Cc1ccc(-c2n[nH]c3c2C(c2cccc(O)c2)N(c2ccc(C(=O)O)cc2)C3=O)cc1 (centres undefined) | 2.3% | 5.2% | 2.7%
33 | COc1ccccc1NC(=O)CN(Cc1ccco1)C(=O)c1cncc(Br)c1 | 2.6% | -5.4% | -20.2%

Assay outcomes as filed in PubChem.
